Data published in publication PMC12883167 (Bioorganic & medicinal chemistry letters, 2019).

Test system: RelB cleavage (MALT1 protease activity) in OCI-Ly3 cells
Test: Inhibition of RelB cleavage in OCI-Ly3 cells by Western blot
Format: cell-based
Conditions: at 1.25 μM

Q: For CC(C)C[C@H](NC(=O)OCc1ccccc1)C(=O)N[C@H](C(=O)N1CCC[C@H]1C(=O)N[C@@H](CCCNC(=N)N)C(=O)CF)C(C)C [Compound 1, Z-LVPR-fmk] (Cbz-LVPR-CH2F), which “inhibition of RelB cleavage” value is on record?
A: complete inhibition

Peptide text beside a SMILES is read from it. * marks the point of attachment. Cbz = O=C(OCc1ccccc1)*; CH2F = FC*
